Test results reported in US11433068B2, “Treatment of cancers having alterations within the SWI/SNF chromatin remodeling complex” (THE GENERAL HOSPITAL CORPORATION, priority 2016, dated 2022).

Tested on: H3K27
Experiment: Histone western blot of cells treated with EZH2 inhibitors (FIGS. 6A, 6B)
Format: cell-based
Settings: UACC257 cell line
Excerpt: The G9a and EZH2 methyltransferases are known to target H3K9 and H3K27, respectively.

CCN(c1cc(-c2ccc(CN3CCOCC3)cc2)cc(C(=O)NCc2c(C)cc(C)[nH]c2=O)c1C)C1CCOCC1 [EPZ6438]
methylation marks at H3K27 (histone western blot): selective and specific decrease in the methylation marks
